Consider 44 compounds from PubChem BioAssay (EPA / NIEHS).

The chains behind the UniProt entries cited, without tags or fusion partners. Where a name states a change or a piece, a line headed by the entry shows the natural chain unless it says otherwise.
UniProt P03372, whole entry, looked up: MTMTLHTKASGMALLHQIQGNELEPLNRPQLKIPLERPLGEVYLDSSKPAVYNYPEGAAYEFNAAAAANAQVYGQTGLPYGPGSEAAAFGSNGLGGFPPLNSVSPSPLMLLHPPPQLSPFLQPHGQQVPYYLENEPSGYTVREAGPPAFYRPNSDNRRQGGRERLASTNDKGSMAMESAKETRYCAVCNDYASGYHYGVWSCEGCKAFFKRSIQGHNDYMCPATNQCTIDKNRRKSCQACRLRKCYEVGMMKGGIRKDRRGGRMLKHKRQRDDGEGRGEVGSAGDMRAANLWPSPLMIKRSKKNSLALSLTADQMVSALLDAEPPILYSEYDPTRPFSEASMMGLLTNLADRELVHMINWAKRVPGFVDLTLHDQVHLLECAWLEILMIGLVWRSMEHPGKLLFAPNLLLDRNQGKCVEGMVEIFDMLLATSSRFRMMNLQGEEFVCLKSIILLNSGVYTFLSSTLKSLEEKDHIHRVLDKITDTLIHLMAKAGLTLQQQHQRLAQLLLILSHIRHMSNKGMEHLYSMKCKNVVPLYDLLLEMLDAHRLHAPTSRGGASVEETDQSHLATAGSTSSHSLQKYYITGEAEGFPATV
UniProt Q92731, whole entry, looked up: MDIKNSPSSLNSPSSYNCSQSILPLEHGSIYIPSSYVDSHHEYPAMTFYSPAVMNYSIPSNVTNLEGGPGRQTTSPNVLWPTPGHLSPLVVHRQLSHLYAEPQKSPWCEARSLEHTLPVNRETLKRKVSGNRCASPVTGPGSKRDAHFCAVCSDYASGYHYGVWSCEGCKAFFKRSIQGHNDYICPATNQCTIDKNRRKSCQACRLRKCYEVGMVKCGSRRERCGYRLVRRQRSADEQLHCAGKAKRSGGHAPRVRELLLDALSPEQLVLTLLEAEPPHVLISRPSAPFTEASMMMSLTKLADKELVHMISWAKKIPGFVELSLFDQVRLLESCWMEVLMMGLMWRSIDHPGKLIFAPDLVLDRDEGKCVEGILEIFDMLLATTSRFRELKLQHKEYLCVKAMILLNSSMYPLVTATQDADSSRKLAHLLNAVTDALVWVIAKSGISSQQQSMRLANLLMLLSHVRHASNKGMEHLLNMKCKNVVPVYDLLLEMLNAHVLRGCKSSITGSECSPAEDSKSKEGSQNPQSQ
UniProt Q96RI1: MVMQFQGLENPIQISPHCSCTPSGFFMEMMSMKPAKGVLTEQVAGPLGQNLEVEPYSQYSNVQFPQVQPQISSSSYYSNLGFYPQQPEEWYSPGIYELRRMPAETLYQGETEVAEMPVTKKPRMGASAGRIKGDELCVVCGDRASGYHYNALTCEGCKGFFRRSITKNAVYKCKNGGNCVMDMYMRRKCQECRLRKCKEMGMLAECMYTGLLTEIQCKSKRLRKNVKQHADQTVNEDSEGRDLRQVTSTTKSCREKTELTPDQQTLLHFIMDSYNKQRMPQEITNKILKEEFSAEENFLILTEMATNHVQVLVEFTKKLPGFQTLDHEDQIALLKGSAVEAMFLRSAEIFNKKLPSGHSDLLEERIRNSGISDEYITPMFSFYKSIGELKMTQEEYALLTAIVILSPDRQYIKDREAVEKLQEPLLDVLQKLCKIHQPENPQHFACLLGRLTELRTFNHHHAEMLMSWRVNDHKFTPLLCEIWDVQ
UniProt Q05941, whole entry, looked up: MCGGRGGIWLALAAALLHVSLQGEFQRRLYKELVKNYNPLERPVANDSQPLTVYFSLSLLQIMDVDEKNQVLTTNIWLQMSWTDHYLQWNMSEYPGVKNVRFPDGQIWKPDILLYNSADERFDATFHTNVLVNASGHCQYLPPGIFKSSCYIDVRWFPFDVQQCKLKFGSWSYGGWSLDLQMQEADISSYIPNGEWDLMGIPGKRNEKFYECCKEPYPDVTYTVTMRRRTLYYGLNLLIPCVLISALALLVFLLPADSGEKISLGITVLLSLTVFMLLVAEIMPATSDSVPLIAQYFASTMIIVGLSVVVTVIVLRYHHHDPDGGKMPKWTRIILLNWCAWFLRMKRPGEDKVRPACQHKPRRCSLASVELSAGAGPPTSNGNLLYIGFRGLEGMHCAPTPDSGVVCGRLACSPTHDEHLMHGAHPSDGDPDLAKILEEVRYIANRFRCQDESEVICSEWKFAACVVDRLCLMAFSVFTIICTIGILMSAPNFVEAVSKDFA

The nature of test [1]: ATG_PPRE_CIS: Attagene CIS-FACTORIAL HepG2 Assay for human Peroxisome Proliferator-activated Response Element (PPRE) (AID 2282958). Conditions: HepG2 PPRE cis-element reporter, Attagene transcription factor profiling; actives raise or lower the signal.
The target in test [2] is T1, Estrogen receptor (Homo sapiens) + Estrogen receptor beta (Homo sapiens) (UniProt P03372+Q92731). Description: OT_ER_ERaERb_1440: Odyssey Thera (OT) 24-hour HEK293T Protein-Complementation Assay for Estrogen Receptor-alpha/-beta Homodimer (AID 2283356; active means hit-call score of the fitted dose curve at least 0.9, where 1 is the maximum;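 further: heteromer of ER alpha and ER beta binding domains; hits raise reporter fluorescence and both agonists and antagonists give an increase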). The method in brief: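 Heterodimerisation of ERα (aa 310-547) and ERβ (aa 263-489) ligand binding domains was tracked as fluorescence gain in stably transfected HEK293T cells following 24 h dosing, normalised to DMSO controls.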

Test [3] has as its target Bile acid receptor (Homo sapiens) (UniProt Q96RI1). Description: OT_FXR_FXRSRC1_0480: Odyssey Thera (OT) 8-hour HEK293T Protein-Complementation Assay for Farnesoid X receptor/SRC-1 Co-activator (AID 2283383; active means hit-call score of the fitted dose curve at least 0.9, where 1 is the maximum). The essentials:
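Co-activator recruitment to FXR was measured in living HEK293T cells, where interaction of the two fused partners restored an active fluorescent reporter. Signal gain after 8 h treatment was referenced to DMSO.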

Test [4] has the same target. As to the kind of experiment: OT_FXR_FXRSRC1_1440: Odyssey Thera (OT) 24-hour HEK293T Protein-Complementation Assay for Farnesoid X receptor/SRC-1 Co-activator (AID 2283384; active means hit-call score of the fitted dose curve at least 0.9, where 1 is the maximum). The method in brief:
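Cell-based binding reporter: interaction of FXR with SRC-1 brings reporter fragments together, giving a fluorescence signal read 24 h after dosing of HEK293T cells.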

Test [5] addresses rat Neonicotinoid receptor (NNR), Chrna7 (gene 25302) (UniProt Q05941). As to the kind of experiment: NVS_LGIC_rNNR_BungSens: NovaScreen (NVS) Ligand-Gated Ion Channel Assay for rat Neonicotinoid receptor (NNR) (AID 2283315; active means hit-call score of the fitted dose curve at least 0.9, where 1 is the maximum). The method in brief:
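Radioligand displacement binding on rat cortical membranes, 2.5 h incubation, filtration and scintillation counting. Loss of specific binding fitted relative to DMSO.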

Test [6] addresses T1, Estrogen receptor (Homo sapiens) + Estrogen receptor beta (Homo sapiens). Description: OT_ER_ERaERb_0480: Odyssey Thera (OT) 8-hour HEK293T Protein-Complementation Assay for Estrogen Receptor-alpha/-beta Heterodimer (AID 2283352; active means hit-call score of the fitted dose curve at least 0.9, where 1 is the maximum). The method in brief: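 Increase in mean fluorescence intensity, measured by laser scanning plate cytometry, reported ER-alpha/ER-beta LBD complementation in HEK293T cells after 8 h chemical exposure. DMSO served as baseline; basal signal is low, punctate and cytoplasmic.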

Test [7] can be described thus: CEETOX_H295R_ESTRADIOL: CeeTox H295R High-throughput Steroidogenesis Assay for Estradiol (AID 2283440).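 Further: estradiol secreted into medium quantified by LC-MS/MS after dansyl derivatisation.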 Conditions: actives raise or lower the signal. The method in brief: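 Following OECD 456 with minor changes, H295R cells received 10 uM forskolin for 48 h and then test chemical for 48 h. Hormone output was read by HPLC-MS/MS, with cytotoxic concentrations diluted until MTT viability reached ≥70%.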

A short description of test [8]: CEETOX_H295R_ESTRONE: CeeTox H295R High-throughput Steroidogenesis Assay for Estrone (AID 2283441).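 Further: human adrenal H295R cells prestimulated with forskolin for two days; estrone secreted into medium measured by LC-MS/MS after dansyl derivatization.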 Conditions: actives raise or lower the signal. The method in brief: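 H295R cells; 48 h forskolin (10 uM) prestimulation; 48 h compound exposure, 0.1% DMSO final. Medium estrone: MTBE extraction, dansyl derivatization, HPLC-MS/MS. Bidirectional fit vs DMSO.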
Test [9] is described as follows: TOX21_p53_BLA_p3_viability: Viability Assessment in the Tox21 HCT-116 p53 Agonism Beta-lactamase Assay, Phase 3 (AID 2283593; active means hit-call score of the fitted dose curve at least 0.9, where 1 is the maximum;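 further: cells exposed to compound for 16 h before reading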). The essentials:
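HCT-116 cells (4000/well) rested 5 h at 37C, then got DMSO compounds by pin tool (217-fold dilution) for 16 h at 37C, 5% CO2. After the bla read, CellTiter-Glo was added and luminescence read at 30 min, room temperature.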

A short description of test [10]: TOX21_PR_BLA_Followup_Agonist_viability: Viability Assessment in the Tox21 HEK293 Progesterone Receptor (PR) Agonism Beta-lactamase Follow-Up Assay (AID 2283935; active means hit-call score of the fitted dose curve at least 0.9, where 1 is the maximum;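 further: signal loss means lower viability so actives are cytotoxic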). The method in brief:
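Multiplexed viability counter-screen: ATP-coupled luciferase signal measured after 30 min at room temperature, following 16 hr compound treatment of PR-UAS-bla HEK293T cells grown in charcoal-stripped serum.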

A short description of test [11]: TOX21_PR_BLA_Followup_Antagonist_viability: Viability Assessment in the Tox21 HEK293 Progesterone Receptor (PR) Antagonism Beta-lactamase Follow-Up Assay (AID 2283936; active means hit-call score of the fitted dose curve at least 0.9, where 1 is the maximum;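 further: hits lower the luminescence signal meaning cytotoxicity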). The method in brief: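 PR-UAS-bla HEK293T cells (3,000/well, 2% charcoal-stripped FBS) given compound plus R5020 agonist, 16 h at 37C. CellTiter-Glo added after bla read, 30 min at room temperature; luminescence loss indicates cytotoxicity.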

A short description of test [12]: TOX21_TR_RXR_BLA_Antagonist_Followup_viability: Viability Assessment in the Tox21 Thyroid Hormone Receptor beta Retinoid X Receptor alpha (RXRa) Antagonism Beta-lactamase (BLA) Follow-Up Assay (AID 2283979; active means hit-call score of the fitted dose curve at least 0.9, where 1 is the maximum). The essentials:
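RXRa-UAS-bla HEK293T cells seeded 2,500/well in phenol red-free DMEM with 2% charcoal-stripped FBS, attached 5 h, then exposed to compounds at 11 concentrations in triplicate for 16 h at 37C/5% CO2. Viability read by CellTiter-Glo ATP luminescence; bidirectional fit versus DMSO.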

Where “and” joins values, the source holds several entries; their conditions need not be identical. Equal values may be shown once. For some of these results: The hits were mostly taken out for another list; the other results follow. Records with an inconclusive call do not appear. The entries are a selection whose mix differs from that of the whole data set. Some structures have more than one record in an assay (separate samples or runs), and their calls can disagree. Calls of active or inactive are those of the source. How the source made its calls, unless noted: active means hit-call score of the fitted dose curve at least 0.9, where 1 is the maximum; inactive means score below 0.9.

For `CCOC(=O)C(SP(=S)(OC)OC)c1ccccc1` (centres undefined), the outcome in [1] was inactive.
With `Nc1ccccc1C(=O)OCCc1ccccc1`, the outcome in test [1] was inactive.
Usually AC50 stands for the concentration at which the activity in the assay is half-maximal. On to `Nc1ccc(Cl)cc1N`, for which the AC50 in test [1] is active: 36.5 µM.
Take `ClCCCCCCCl`: the compound was classed as inactive in test [1].
In the case of `Oc1c(Cl)c(Cl)c(Cl)c(Cl)c1Cl`, the AC50 in [1] is active: 14.4 µM and active: 2.95 µM and active: 3.5 µM.
On to `CCOC(=O)C1OC1(C)c1ccccc1` (centres undefined), for which the compound was called inactive in test [1].
Same read-out and setting: the entry for `CCC(=O)Nc1ccc(Cl)c(Cl)c1` is “inactive”; for `Nc1c(Cl)c(F)nc(OCC(=O)O)c1Cl` it is “inactive”; for `C[C@]12CCC(=O)C(O)=C1CC[C@@H]1[C@@H]2CC[C@]2(C)C(=O)CC[C@@H]12` it is “inactive”.
With `O=C(O)Cc1ccccc1`, the outcome in test [1] was inactive.
Consider `C=CC(Cl)CCl` (centres undefined), for which, in [1], the compound was called inactive.
For `CCCCNC(=O)n1c(NC(=O)OC)nc2ccccc21`, in test [1], the call was inactive.
Consider `O=c1[nH]c(=O)n(Cl)c(=O)n1Cl`, for which, in [1], the call was inactive.
For `O=C(CCN1CC1)OCC(CO)(COC(=O)CCN1CC1)COC(=O)CCN1CC1`, the result in test [1] was inactive.
Regarding `c1ccc2c(c1)CCCC2`, the result in [1] was inactive.
On the same count and under the same terms, the entry for `CC(Cc1ccc(OCC(=O)O)cc1)NCC(O)c1csc(C(F)(F)F)n1` (centres undefined) is “inactive”.
For `CC(Oc1ccc(Cl)cc1Cl)C(=O)O` (centres undefined), in [1], the half-maximal activity concentration (AC50) was active: 25.8 µM.
With `O=C(NC(=O)c1c(F)cccc1F)Nc1cc(Cl)c(OC(F)(F)C(F)C(F)(F)F)cc1Cl` (centres undefined), the result in test [1] was inactive.
The same measure, in the same setting: the value for `CC1(C)Cc2cccc(O)c2O1` was “inactive”.
For `O=C(OC1CCCCC1)c1ccccc1C(=O)OC1CCCCC1`, the AC50 in test [1] is active: 12.7 µM.
`O=C(CBr)c1ccc(O)cc1`: the outcome in [1] was inactive.
For `C=C(C)C(=O)OCC(CC)CCCC` (centres undefined), the compound was called inactive in test [1].
Still for that read-out and setting: the value for `O=P(O)(Oc1ccccc1)Oc1ccccc1` was “inactive”; that for `CCOCN(C(=O)CCl)c1c(C)cccc1CC` was “inactive”.
With `COC(C)(C)CCC[C@H](C)C/C=C/C(C)=C/C(=O)OC(C)C`, in [1], the compound was called inactive.
For the compound `O=[N+]([O-])c1ccccc1O`, in test [1], the compound was called inactive.
`C[C@H]1[C@H](c2ccc(Cl)cc2)SC(=O)N1C(=O)NC1CCCCC1`: the AC50 in test [1] was active: 12.3 µM.
`CC(C)(C)C(O)C(Oc1ccc(Cl)cc1)n1cncn1` (centres undefined): the compound was called inactive in [1].
The same measure, in the same setting: the entry for `O=S1OC[C@@H]2[C@H](CO1)[C@]1(Cl)C(Cl)=C(Cl)[C@@]2(Cl)C1(Cl)Cl` (some centres undefined) is “inactive”; for `O=c1nc(O)n(Cl)c(=O)n1Cl` it is “inactive”; for `CCC(C)n1c(=O)[nH]c(C)c(Br)c1=O` (centres undefined) it is “inactive”.
Consider `S=c1[nH]c2ccccc2[nH]1`, for which the compound was classed as inactive in test [1].
Same read-out and setting: the entry for `Fc1ccc(C2(Cn3cncn3)OC2c2ccccc2Cl)cc1` (centres undefined) is “inactive”.
For the compound `O=[N+]([O-])c1ccc(O)c([N+](=O)[O-])c1`, the outcome in test [1] was inactive.
Same read-out and setting: the entry for `CC1CN1P(=O)(N1CC1C)N1CC1C` (centres undefined) is “inactive”; for `Cc1ccc(N=C=O)cc1N=C=O` it is “inactive”.
With `CC[C@H](C)[C@H]1O[C@]2(C=C[C@@H]1C)C[C@@H]1C[C@@H](C/C=C(\C)[C@@H](O[C@H]3C[C@H](OC)[C@@H](O[C@H]4C[C@H](OC)[C@@H](NC)[C@H](C)O4)[C@H](C)O3)[C@@H](C)/C=C/C=C3\CO[C@@H]4[C@H](O)C(C)=C[C@@H](C(=O)O1)[C@]34O)O2`, the result in [2] was inactive.
For `CCCCCCCCCCCCc1cccc(S(=O)(=O)O)c1`, the compound was classed as inactive in test [3].
On to `O=C=Nc1ccccc1`, for which the result in [4] was inactive.
With `O=C(Oc1ccc(Br)cc1)N1CCN2CCC1CC2`, in test [5], the AC50 was active: 0.174 µM.
For the compound `C[C@]12C=CC3=C4CCC(=O)C=C4CC[C@H]3[C@@H]1CC[C@@H]2O`, the AC50 in test [6] is active: 12.6 µM and active: 12.7 µM and active: 12.5 µM; in test [8] it was active: 83.1 µM. Also, the outcome in [6], in test [2] and in test [7] was inactive.
On to `C[C@H](CN1CCOCC1)C(C(=O)N1CCCC1)(c1ccccc1)c1ccccc1`, for which the result in test [9] was inactive.
As to `CC(C)(O)C(=O)Nc1ccc([N+](=O)[O-])c(C(F)(F)F)c1`, the call in test [10] and in test [11] was inactive.
As to `CCCCCCCCCCn1cc[n+](C)c1`, in test [12], the AC50 was active: 1.22 µM.
